Tests used:
Adenosine A2 receptor = Adenosine A2 receptor (Rattus norvegicus, UniProt P29276+P30543); experiment: Inhibition of [3H]- NECA binding to adenosine receptor A2; type: protein assay
Adenosine receptor A2a = Adenosine receptor A2a (Rattus norvegicus, UniProt P30543); experiment: Inhibition of [3H]- NECA binding to adenosine receptor A2A

Sequences of proteins named here, by UniProt entry; tags and fusion partners are left off. A change or cut given only in a name is not applied to a line headed by its entry.
UniProt P29276: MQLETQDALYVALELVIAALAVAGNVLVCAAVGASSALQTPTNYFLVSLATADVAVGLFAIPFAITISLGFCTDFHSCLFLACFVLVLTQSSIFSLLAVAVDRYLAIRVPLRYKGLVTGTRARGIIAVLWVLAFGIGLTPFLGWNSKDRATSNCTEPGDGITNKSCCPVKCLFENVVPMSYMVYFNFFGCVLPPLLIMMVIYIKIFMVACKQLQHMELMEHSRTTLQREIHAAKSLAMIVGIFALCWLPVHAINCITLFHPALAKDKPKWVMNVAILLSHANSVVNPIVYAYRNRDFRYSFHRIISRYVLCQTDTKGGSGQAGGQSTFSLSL
UniProt P30543, whole entry: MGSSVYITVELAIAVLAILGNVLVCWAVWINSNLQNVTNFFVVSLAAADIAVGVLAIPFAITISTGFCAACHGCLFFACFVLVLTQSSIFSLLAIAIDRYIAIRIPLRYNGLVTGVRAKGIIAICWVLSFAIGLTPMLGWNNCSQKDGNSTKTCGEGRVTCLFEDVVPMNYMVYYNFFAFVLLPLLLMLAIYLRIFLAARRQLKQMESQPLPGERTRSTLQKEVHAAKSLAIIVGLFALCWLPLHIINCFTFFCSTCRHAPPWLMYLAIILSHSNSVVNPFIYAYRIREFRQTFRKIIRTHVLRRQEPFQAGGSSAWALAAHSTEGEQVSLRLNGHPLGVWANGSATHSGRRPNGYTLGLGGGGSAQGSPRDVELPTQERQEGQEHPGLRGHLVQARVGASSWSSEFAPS

| Ki (Adenosine A2 receptor) | Ki (Adenosine receptor A2a) | SMILES |
| --- | --- | --- |
| 0.22 µM |  | C[C@H](Cc1ccccc1)Nc1ncnc2c1ncn2[C@@H]1O[C@H](CO)[C@@H](O)[C@H]1O [(R)-PIA] |
|  | 3 µM | C[C@@H](Cc1ccccc1)Nc1ncnc2c1ncn2[C@@H]1O[C@H](CO)[C@@H](O)[C@H]1O [(S)-PIA] |

From ChEMBL document CHEMBL1125222, “Activity of N6-substituted 2-chloroadenosines at A1 and A2 adenosine receptors” (J Med Chem, 1991)
